Source: patent US6287840A (Axys Pharmaceuticals, Inc., priority 1999, dated 2001)

Chains of the proteins cited; added tags and fusions are not shown. Residues count along the entry.
UniProt P07154, 114-288 limits assumed: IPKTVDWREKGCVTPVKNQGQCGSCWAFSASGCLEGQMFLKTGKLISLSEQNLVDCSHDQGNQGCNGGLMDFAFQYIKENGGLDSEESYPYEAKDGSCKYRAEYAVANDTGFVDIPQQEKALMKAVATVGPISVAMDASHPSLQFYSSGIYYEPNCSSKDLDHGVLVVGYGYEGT
UniProt P07154, 291-334 limits assumed: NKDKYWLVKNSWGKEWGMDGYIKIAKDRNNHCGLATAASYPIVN

How the values were obtained:
calpain = assay: Inhibition (inactivation) of calpain, Suc-Leu-Tyr-AMC; conditions: values marked * (or %); pH 7.5, 5 mM CaCl2, 25° C.
Protocol: The inhibitors were tested against calpain at 1 or 2% as for the other enzymes. The reaction conditions were 50 mM Tris, pH 7.5, 5 mM CaCl2, 2.5 mM DTT, assayed at 25° C. The substrate was 100 μM Suc-Leu-Tyr-AMC.

[1] = molecular target: Cathepsin L from rat liver (Rattus norvegicus, UniProt P07154); assay: Inhibition of cathepsin L, Z-Phe-Arg-AMC fluorescence progress curves
Protocol: Stock solutions of the various inhibitors (10 mM) were made in DMF; dilutions were made in the same solvent. Cathepsin L from rat liver, (see Mason et al., Biochem. J. 226:233-241 (1985)) was approximately 1 nM in the assay. The assay buffer contained 50 mM phosphate at pH 6:2, 2.5 mM dithiothreitol (DTT), and 2.5 mM ethylenediaminetetraacetic acid (EDTA). The substrate for cathepsin L was 5 μM Z-Phe-Arg-AMC (carbobenzyloxyphenylalanylarginylaminomethylcoumarin). The assays were initiated at 25° C. by addition of enzyme to 2 mL of assay buffer containing the substrate and the various inhibitors (30-0.001 μM). The increase in fluorescence at 460 nm with excitation at 380 nm was followed with time. Inactivation of cathepsin L was indicated by a downward curve in the increase in fluorescence with time. In the absence of inhibitors, the enzymatic production of free AMC was linear throughout the time course of inactivation examined. Data points were collected over at least 3 half-times of inactivation. The inhibition progress curves were analyzed using non-linear curve fitting software to compute the kobs values. Approximate second-order inactivation constants (kobs /[I]) were calculated for all compounds. For selected inhibitors, plots of 1/[I] vs. 1/kobs yielded the true constants kirr, KI, and kirr/KI and were corrected for the presence of substrate by dividing KI (app.) by (1+[S]/Km).

O=C(/C=C/[C@H](CCc1ccccc1)NC(=O)[C@H](Cc1ccccc1)NC(=O)N1CCOCC1)N[C@@H](Cc1ccccc1)C(=O)O
kobs /[I]* (calpain): < 50 M⁻¹ s⁻¹
kirr [1]: 0.032 s⁻¹
Ki ([1]; corrected for substrate): 3.7 µM
k/KI (kirr/KI) ([1]; values without asterisk, 25° C., pH 6.2): 8,600 M^-1 sec^-1
